Laboratory results from publication PMC4387200 (Toxicology and applied pharmacology, 2015).

Biological target: T1, Human PXR (Homo sapiens, UniProt O75469)
T1 sequence (O75469 107-434): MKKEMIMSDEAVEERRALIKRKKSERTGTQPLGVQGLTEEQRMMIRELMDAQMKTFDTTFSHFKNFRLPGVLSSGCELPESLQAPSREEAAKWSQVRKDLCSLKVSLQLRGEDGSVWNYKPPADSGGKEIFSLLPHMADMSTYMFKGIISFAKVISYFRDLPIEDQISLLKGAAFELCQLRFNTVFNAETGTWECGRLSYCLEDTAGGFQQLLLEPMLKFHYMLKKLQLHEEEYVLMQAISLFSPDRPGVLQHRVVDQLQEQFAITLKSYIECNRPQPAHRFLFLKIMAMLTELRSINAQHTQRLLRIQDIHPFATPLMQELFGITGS

With Hexabromocyclododecane the “Human PXR RECh20” value was 2.6 µM.
